scFv variants of Ab-14 (light chain) against a SARS-CoV-2 spike peptide

The measurements come from Engelhart et al. 2022 (doi:10.1038/s41597-022-01779-4) through the FLAb antibody collection.

The target is the same throughout: PDVDLGDISGINAS, from the HR2 region of SARS-CoV-2 spike.

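The parent was found by panning a naive human phage display library on the peptide. Variants in AAYL50 differ from the parent at up to three CDR positions; double and triple changes were sampled at random. The assay is AlphaSeq: two haploid yeast populations carry antibody and antigen on their surface. Binding brings cells together so that they mate, and sequencing counts the barcode pairs among the diploids. Each replicate has its own calibration line, from reference interactions of the BCL2 family. There are three technical replicates.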

Each scFv is VH, the linker GGGGSGGGGSGGGGS, VL, as in the parent Ab-14, and differs from it in the CDRs of the light chain only.
VH: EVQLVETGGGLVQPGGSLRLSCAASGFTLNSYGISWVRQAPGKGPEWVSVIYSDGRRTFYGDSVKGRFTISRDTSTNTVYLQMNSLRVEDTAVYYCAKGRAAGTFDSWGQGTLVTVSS
VL: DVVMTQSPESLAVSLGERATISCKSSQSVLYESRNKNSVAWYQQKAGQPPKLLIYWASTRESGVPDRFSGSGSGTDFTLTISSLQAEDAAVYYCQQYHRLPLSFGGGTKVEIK

Each variant is given by its three light chain CDRs, as the data file delimits them; those of the parent are KSSQSVLYESRNKNSVA, WASTRES, QQYHRLPLS. All variants listed here change W56 of the VL, counted from its first residue. Values are log10 of the apparent Kd in nM; lower means stronger binding. The mean shown is taken over the replicates in which the pair was detected. An entry "nd" has no value in the source: the pair was not observed among the diploids in any replicate. This suggests poor binding but is not conclusive. Empty control strains, which show no peptide, gave a signal in 18% of pairings with library AAYL50; the median was 4.19 and 95% of these signals were weaker than 2.99. No background was subtracted. For each scFv, signals with the empty controls are counted beside the result. For reference, the parent read 0.65 as the reference entry and 1.68 as a member of this library.

KSSQSVLYESRNKNSVA, YASTRES, AQYTRLPLS: 2.43 (2 of 3 replicates; controls 0 of 9).
KWSQSVLYESRNKNSVA, KASTRES, QQYHRLPLS: 0.29 (3 of 3 replicates; controls 0 of 9).
KSSQSVLYESRNKISVA, FASTRES, QQYHRDPLS: 3.60 (2 of 3 replicates; controls 4 of 9).
KPSQSELYESRNKNSVA, LASTRES, QQYHRLPLS: 1.08 (3 of 3 replicates; controls 0 of 9).
KSWQSVLYESRNKNSVA, RASTRES, QQYHRLCLS: nd (0 of 3 replicates; controls 0 of 9).
KSVVSVLYESRNKNSVA, DASTRES, QQYHRLPLS: -0.11 (3 of 3 replicates; controls 0 of 9).
KSSQSVLYESRNKNWCA, RASTRES, QQYHRLPLS: 2.76 (1 of 3 replicates; controls 0 of 9).
KSSQSVLYESRNKNSVA, QASTRWS, QQGHRLPLS: 5.21 (2 of 3 replicates; controls 5 of 9).
KSSQSVLYESRNKSYVA, YASTRES, QQYHRLPLS: 3.29 (1 of 3 replicates; controls 1 of 9).
KSSQSVLHESRNKNSVA, DASTRQS, QQYHRLPLS: 0.84 (3 of 3 replicates; controls 1 of 9).
KSSQSVLYESRNKNPVA, HASTRES, QQYHRPPLS: 5.18 (3 of 3 replicates; controls 6 of 9).
KSSQSVLYESRNKNNVA, IASTREF, QQYHRLPLS: nd (0 of 3 replicates; controls 1 of 9).
KSSQSVLYESRNKNSVA, YASTRES, QQYHRLPLS: 3.97 (1 of 3 replicates; controls 2 of 9).
GSSQSVLYESRNKNSVA, PASTRES, SQYHRLPLS: 4.21 (1 of 3 replicates; controls 0 of 9).
KSSQSILYESRNKNSVT, YASTRES, QQYHRLPLS: 4.52 (1 of 3 replicates; controls 1 of 9).
KSTQSVLYESRNKNSVA, ADSTRES, QQYHRLPLS: 0.38 (3 of 3 replicates; controls 0 of 9).
KSSQSVLYESRNKNSVA, LACTRES, QQYWRLPLS: 3.98 (3 of 3 replicates; controls 6 of 9).
KSSQSVLYESRNKNSVA, HASTRES, QQYHRLFLS: 1.55 (3 of 3 replicates; controls 1 of 9).
KSSQMVLYESSNKNSVA, PASTRES, QQYHRLPLS: 4.84 (2 of 3 replicates; controls 3 of 9).
KSSQSVLYESRNKNSVA, AASTREI, QQYHRLPLS: 2.41 (1 of 3 replicates; controls 2 of 9).
KSSQSVLYESRNNNSVA, EISTRES, QQYHRLPLS: 0.18 (3 of 3 replicates; controls 5 of 9).
KSSQSTLYESRNKNSVA, MASTRES, QQYHRLPCS: 4.53 (2 of 3 replicates; controls 3 of 9).
KSSQSVLYESRNKNSVA, VANTRES, QSYHRLPLS: 3.80 (3 of 3 replicates; controls 4 of 9).
KSSQSVLYKSRNKNSVA, CASTRES, QQYHRLPLH: 3.28 (3 of 3 replicates; controls 1 of 9).
KLSQSVLYESRNKNSVA, KASTRES, QGYHRLPLS: 0.12 (3 of 3 replicates; controls 5 of 9).
KSSQSVLYGSRNKNSHA, EASTRES, QQYHRLPLS: 1.14 (3 of 3 replicates; controls 2 of 9).
KSSQSVLYQSRNKNSVA, PASTRES, QQYHRLTLS: nd (0 of 3 replicates; controls 0 of 9).
KSSQSVFYESRNKNQVA, AASTRES, QQYHRLPLS: 0.60 (3 of 3 replicates; controls 1 of 9).
KSSQSVLYESRNKNSVM, AASTRES, QFYHRLPLS: nd (0 of 3 replicates; controls 0 of 9).
KSSQSVLYESRNKNMVV, PASTRES, QQYHRLPLS: nd (0 of 3 replicates; controls 0 of 9).

3 of these entries, quoted again:

{"CDR-L1": "KSSQSVLYESRNKNMVV", "CDR-L2": "PASTRES", "CDR-L3": "QQYHRLPLS", "mean log10 Kd (nM)": "nd", "detected": "0 of 3", "control signals": "0 of 9"}
{"CDR-L1": "KSSQSVLYESRNKNSVA", "CDR-L2": "QASTRWS", "CDR-L3": "QQGHRLPLS", "mean log10 Kd (nM)": "5.21", "detected": "2 of 3", "control signals": "5 of 9"}
{"CDR-L1": "KSSQSVLYESRNKSYVA", "CDR-L2": "YASTRES", "CDR-L3": "QQYHRLPLS", "mean log10 Kd (nM)": "3.29", "detected": "1 of 3", "control signals": "1 of 9"}